Reference: patent publication US8389557B2, “Triazole derivatives useful as Axl inhibitors” (Rigel Pharmaceuticals, Inc., priority 2005, dated 2013)

By UniProt entry, the sequences of proteins in these tests, tags left out. Residues count along the entry.
UniProt P30530, 26-894 limits assumed: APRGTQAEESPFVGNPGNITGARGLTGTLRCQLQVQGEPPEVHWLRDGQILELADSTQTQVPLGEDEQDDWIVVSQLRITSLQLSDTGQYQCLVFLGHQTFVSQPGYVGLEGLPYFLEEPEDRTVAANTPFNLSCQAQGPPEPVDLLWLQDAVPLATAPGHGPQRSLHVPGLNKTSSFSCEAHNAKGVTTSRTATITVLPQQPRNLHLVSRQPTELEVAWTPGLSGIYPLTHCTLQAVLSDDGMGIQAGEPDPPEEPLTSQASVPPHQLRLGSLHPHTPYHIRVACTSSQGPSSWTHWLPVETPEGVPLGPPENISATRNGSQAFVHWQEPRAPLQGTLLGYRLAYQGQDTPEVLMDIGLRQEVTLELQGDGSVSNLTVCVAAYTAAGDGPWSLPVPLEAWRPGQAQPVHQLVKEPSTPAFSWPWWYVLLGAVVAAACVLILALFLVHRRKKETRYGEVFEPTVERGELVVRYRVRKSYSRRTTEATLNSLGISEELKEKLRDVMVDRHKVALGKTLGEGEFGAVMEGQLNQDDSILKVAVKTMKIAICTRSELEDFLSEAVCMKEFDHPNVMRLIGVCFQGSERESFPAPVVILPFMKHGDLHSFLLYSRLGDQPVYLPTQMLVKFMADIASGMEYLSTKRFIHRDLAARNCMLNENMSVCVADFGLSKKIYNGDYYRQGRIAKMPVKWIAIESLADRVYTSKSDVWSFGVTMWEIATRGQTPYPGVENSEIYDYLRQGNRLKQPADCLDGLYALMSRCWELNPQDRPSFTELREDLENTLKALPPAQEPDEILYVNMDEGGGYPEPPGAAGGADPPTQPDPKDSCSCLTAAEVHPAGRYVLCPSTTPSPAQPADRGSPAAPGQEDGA

Molecular target: Axl (Homo sapiens, UniProt P30530)
Assay: Phospho-Akt in-cell Western assay (inhibition of Axl activity)
Settings: Table 3; Hela cells, Axl antibody cross-linking stimulation, phospho-Akt chemiluminescence
Experimental: The compounds of the invention were tested in the following assay for their ability to inhibit Axl activity.
Phospho-Akt in-Cell Western Assay […]

SMILES: Nc1nc(Nc2ccc(OCCN3CCCC3)cc2)nn1C(=O)c1ccc2c(c1)CCO2
- IC50: < 1 µM
